Structures can show the parent of a compound that is named as a salt.
Biological target: T1, human KMO (Homo sapiens, UniProt O15229)
T1 construct: Full length human KMO was amplified by PCR from pcDNA5/FRT/V5-His-TOPO/hKMO; made in house; host or cells: Spodoptera frugiperda Sf9 cells (baculovirus); purified membrane fraction used
Assay: KMO MS Rapidfire assay
Type: biochemical
Settings: human KMO-membranes from Sf9 cells, 10 μM Kynurenine, 200 μM NADPH, 3-HK detected by MS
Procedure: pFastbac1 GST-KMO was transposed into the baculovirus genome using the BAC-to-BAC technology (Invitrogen) and bacmid DNA was prepared and transfected into Spodoptera frugiperda (Sf9) cells using Cellfectin II (Invitrogen).
Cells were harvested after 48 hours and disrupted by blending in 50 mM Hepes, pH 7.4, 1 mM EDTA buffer containing protease inhibitors. A low speed spin (400 g) was used to remove cell debris, followed by a high speed spin (75 000 g) to pellet the membranes. The membranes were purified in a discontinuous sucrose density gradient by re-suspending in 10% (w/v) sucrose and layering over 40% (w/v) sucrose, both in the above buffer. This was centrifuged at 150 000 g and the purified membranes were taken from the interface, collected by centrifugation at 100 000 g, resuspended in buffer and aliquoted for storage at −80° C.
11 point, 3-fold serial dilutions of test compounds were prepared in DMSO and 100 nL of these solutions were dispensed into 384-well V-base polypropylene plates (Greiner Bio-one, Stonehouse, UK) using an Echo 555 acoustic dispenser (Labcyte, Sunnyvale, Calif.). This gave a final assay concentration range between 100 μM and 1.7 nM in 10 μL final assay volume (see below). 100 nL DMSO was dispensed into columns 6 and 18 for high and low controls, respectively, with prior inactivation of the enzyme in column 18 by pre-dispense of 30 μL of 0.5% (v/v) TFA. […]

Protein sequences, listed by entry. Tags and fused reporters are not part of them. Lines headed by an entry give the natural chain unless they say otherwise; changes in a name come on top.
UniProt O15229: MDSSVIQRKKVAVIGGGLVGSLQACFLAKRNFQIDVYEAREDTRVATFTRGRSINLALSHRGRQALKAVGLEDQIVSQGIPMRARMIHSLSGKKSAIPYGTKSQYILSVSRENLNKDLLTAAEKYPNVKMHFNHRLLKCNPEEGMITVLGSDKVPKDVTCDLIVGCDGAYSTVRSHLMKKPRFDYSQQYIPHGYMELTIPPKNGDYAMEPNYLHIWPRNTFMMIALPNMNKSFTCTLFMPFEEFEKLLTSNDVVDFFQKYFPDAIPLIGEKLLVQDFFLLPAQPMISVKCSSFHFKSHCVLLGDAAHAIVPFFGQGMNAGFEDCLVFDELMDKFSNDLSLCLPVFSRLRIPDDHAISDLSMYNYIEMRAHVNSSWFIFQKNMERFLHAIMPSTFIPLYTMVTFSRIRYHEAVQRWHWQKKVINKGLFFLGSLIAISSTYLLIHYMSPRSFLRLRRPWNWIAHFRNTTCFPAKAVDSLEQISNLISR

## CC(Oc1cc2oc(=O)n(CCC(=O)O)c2cc1Cl)c1ccccn1 (stereo not shown) [Example 2, 3-(5-chloro-2-oxo-6-(1-(pyridin-2-yl)ethoxy)benzo[d]oxazol-3(2H)-yl)propanoic acid, 2-Amino-2-(hydroxymethyl)-1,3-propanediol Salt]
  median pIC50: 8.4

Source: patent US11352334B2, “3-(5-chloro-2-oxobenzo[d]oxazol-3(2H)-yl) propanoic acid derivatives as KMO inhibitors” (THE UNIVERSITY COURT OF THE UNIVERSITY OF EDINBURGH, priority 2013, dated 2022)
